Holding throughout (test): [^3H]NMS saturation binding, CHO cell membranes
For one experiment, the target named is T1, Rat M5 mAChR (Rattus norvegicus, UniProt P08911).
T1 construct: host or cells: CHO (CHO-K1) cells
As to conditions: for Bmax: CHO cells expressing rat M5. The method, then: (§1) Membranes were prepared from CHO cells stably expressing individual rat mAChRs (rM1 to rM5). Briefly, media was removed, cells were washed with PBS and harvested with PBS into a centrifuge bottle. Cells were spun at 2,000 g for 5 minutes at 4 °C. After harvesting, the supernatant was gently discarded and cold membrane preparation buffer [Hanks’ balanced salt solution (HBSS; Invitrogen), 4.17 mM sodium bicarbonate, 20 mM HEPES and 0.5 mM EDTA] was added (10 mL/dish). Cells were then homogenized for 5–10 seconds with a rotary homogenizer (Polytron®) and centrifuged at 20,000g for 20 minutes at 4 °C. The homogenization/centrifugation cycle was repeated twice. After the last centrifugation, the supernatant was gently discarded and the pellet was resuspended in cold membrane preparation buffer (up to 2 mL). All binding reactions were performed in a total volume of 1 mL containing 25 μg of membrane protein. […] The equilibrium binding was terminated by rapid filtration using a 96-well harvester (Brandel®). Filters were washed three times with ice-cold harvesting buffer and were dried overnight. Radioactivity was counted using a TopCount NXT (PerkinElmer®) and counts were normalized to the maximal specific binding in the presence of vehicle. Saturation and competition binding data were analyzed using a weighted nonlinear least-squares interactive curve-fitting program GraphPad Prism (GraphPad Prism Software version 5.0). A mathematical model for one or two binding sites was applied. The equilibrium dissociation constant (KD) and the binding capacity (Bmax) were determined. The inhibition constant (Ki) was determined from competition curves using the Cheng and Prusoff equation[52].

Sequences of proteins named here, by UniProt entry; tags and fusion partners are left off. A change or cut given only in a name is not applied to a line headed by its entry.
UniProt P08911, whole entry: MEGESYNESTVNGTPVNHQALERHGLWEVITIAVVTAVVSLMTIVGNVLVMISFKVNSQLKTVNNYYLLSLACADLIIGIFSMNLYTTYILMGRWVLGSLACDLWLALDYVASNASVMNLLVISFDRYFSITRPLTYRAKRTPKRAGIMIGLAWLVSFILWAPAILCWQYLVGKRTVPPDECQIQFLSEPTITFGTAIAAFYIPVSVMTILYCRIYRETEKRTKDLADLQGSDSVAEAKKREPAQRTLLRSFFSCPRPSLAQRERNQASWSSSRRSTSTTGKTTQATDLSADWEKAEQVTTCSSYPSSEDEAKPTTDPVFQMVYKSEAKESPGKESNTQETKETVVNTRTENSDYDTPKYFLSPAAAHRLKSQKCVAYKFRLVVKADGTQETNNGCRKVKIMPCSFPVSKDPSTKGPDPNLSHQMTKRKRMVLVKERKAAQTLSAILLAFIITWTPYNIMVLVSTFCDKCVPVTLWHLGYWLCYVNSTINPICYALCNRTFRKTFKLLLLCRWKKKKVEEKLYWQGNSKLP
UniProt P08485, whole entry: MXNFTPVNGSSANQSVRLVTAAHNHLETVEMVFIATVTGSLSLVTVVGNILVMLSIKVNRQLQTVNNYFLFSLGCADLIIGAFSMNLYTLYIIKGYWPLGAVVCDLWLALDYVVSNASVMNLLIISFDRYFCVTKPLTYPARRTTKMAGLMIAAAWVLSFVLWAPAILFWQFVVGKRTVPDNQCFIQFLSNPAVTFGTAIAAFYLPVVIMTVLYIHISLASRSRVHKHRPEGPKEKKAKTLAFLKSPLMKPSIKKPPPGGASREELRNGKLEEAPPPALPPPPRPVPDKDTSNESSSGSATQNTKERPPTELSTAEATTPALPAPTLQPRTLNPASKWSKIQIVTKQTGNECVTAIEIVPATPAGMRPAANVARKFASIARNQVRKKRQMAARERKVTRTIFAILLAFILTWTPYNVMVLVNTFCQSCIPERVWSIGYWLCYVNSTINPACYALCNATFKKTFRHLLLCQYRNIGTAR
UniProt P10980, whole entry: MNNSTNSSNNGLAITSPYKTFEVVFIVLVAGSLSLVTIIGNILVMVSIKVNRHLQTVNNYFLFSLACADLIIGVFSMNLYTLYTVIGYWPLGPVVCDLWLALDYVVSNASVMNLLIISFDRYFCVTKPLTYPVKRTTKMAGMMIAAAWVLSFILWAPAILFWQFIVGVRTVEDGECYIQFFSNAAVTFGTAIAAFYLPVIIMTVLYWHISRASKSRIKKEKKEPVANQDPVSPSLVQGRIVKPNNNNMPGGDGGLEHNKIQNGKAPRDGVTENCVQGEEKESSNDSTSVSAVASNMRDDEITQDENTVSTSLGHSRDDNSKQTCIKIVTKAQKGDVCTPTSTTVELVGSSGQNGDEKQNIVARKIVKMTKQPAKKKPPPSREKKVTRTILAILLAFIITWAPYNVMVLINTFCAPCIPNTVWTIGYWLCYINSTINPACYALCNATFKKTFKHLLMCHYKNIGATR
UniProt P08482: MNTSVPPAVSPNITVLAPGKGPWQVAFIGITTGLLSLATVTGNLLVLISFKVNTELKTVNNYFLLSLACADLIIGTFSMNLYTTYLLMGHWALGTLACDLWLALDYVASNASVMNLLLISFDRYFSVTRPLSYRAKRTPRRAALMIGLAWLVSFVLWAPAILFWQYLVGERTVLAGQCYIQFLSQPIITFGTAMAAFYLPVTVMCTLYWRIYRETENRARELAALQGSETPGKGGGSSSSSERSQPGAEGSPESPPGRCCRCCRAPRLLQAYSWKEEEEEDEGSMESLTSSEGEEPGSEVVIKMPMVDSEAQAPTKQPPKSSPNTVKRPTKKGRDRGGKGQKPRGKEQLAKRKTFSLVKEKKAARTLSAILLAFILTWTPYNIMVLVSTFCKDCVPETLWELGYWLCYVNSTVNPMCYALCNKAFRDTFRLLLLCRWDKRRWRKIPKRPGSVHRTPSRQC
UniProt P08483, whole entry: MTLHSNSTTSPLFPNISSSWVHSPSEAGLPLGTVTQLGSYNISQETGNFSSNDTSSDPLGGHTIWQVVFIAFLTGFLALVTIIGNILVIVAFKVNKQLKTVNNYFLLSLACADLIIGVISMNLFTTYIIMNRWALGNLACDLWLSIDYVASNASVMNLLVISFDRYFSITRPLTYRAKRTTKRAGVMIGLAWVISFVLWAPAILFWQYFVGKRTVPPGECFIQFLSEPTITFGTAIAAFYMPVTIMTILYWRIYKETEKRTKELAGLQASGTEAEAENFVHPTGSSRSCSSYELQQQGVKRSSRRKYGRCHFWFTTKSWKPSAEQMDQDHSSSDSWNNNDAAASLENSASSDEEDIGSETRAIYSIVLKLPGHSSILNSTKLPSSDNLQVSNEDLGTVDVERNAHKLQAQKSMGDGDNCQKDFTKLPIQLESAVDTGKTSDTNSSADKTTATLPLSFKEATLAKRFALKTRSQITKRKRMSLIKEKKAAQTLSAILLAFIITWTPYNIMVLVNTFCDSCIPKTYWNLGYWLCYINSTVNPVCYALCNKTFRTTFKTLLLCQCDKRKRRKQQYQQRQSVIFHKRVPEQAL

The next experiment concerns the target T2, Rat M4 mAChR (Rattus norvegicus, UniProt P08485).
T2 construct: host or cells: CHO (CHO-K1) cells
The method, then:
as §1

For a further experiment, the target named is T3, Rat M2 mAChR (Rattus norvegicus, UniProt P10980).
T3 construct: host or cells: CHO (CHO-K1) cells
As to conditions: for Bmax: CHO cells expressing rat M2. The method, then: as §1

The next experiment addresses T4, Rat M1 mAChR (Rattus norvegicus, UniProt P08482).
T4 construct: host or cells: CHO (CHO-K1) cells
As to conditions: CHO cells expressing rat M1.

Another experiment deals with T5, Rat M3 mAChR (Rattus norvegicus, UniProt P08483).
T5 construct: host or cells: CHO (CHO-K1) cells
As to conditions: CHO cells expressing rat M3.

This is an account of results in article PMC4667193 (Scientific Reports, 2015).

Regarding `CN1[C@@H]2C[C@@H](OC(=O)[C@H](CO)c3ccccc3)C[C@H]1[C@@H]1O[C@@H]12` [[^3H]NMS, l-[N-methyl-^3H]scopolamine], the Kd is 0.224 ± 0.016 nM on Rat M5 mAChR (rat M5), 0.038 ± 0.004 nM at Rat M4 mAChR (rat M4) and 0.159 ± 0.022 nM on Rat M2 mAChR (rat M2).
Regarding `[3H]CN1[C@@H]2C[C@@H](OC(=O)[C@H](CO)c3ccccc3)C[C@H]1[C@@H]1O[C@@H]12` [[^3H]NMS, l-[N-methyl-^3H]scopolamine], the Bmax on Rat M1 mAChR is on record as 1087 ± 165 fmol/mg of protein; on Rat M5 mAChR it was 1564 ± 027 fmol/mg of protein; on Rat M5 mAChR (listed as [3H]NMS) it was 1564±27 fmol/mg of protein; at Rat M4 mAChR (CHO cells expressing rat M4) it was 1835 ± 127 fmol/mg of protein; on Rat M2 mAChR, 1470 ± 053 fmol/mg of protein; on Rat M2 mAChR (listed as [3H]NMS) it was 1470±53 fmol/mg of protein. For the same molecule, the Bmax is given as 1132 ± 033 fmol/mg of protein at Rat M3 mAChR and 1132±33 fmol/mg of protein on Rat M3 mAChR (listed as [3H]NMS).

As usually defined, the Kd is the free concentration of one partner at which half of the binding sites on the other are occupied at equilibrium, for simple one-to-one binding.
